Experimental findings from publication PMC10838953 are described below.

One assay concerns 786-O cells. Particulars: 4 μM, 48 h.
A further assay concerns A375 cells. The conditions noted are these: 4 μM, 48 h.

On to `O=C(O)c1ccc2c(c1)nc(Nc1cccc(Cl)c1)c1ccncc12` [CX-4945, silmitasertib], for which the “proliferation, cell death and apoptosis” value with 786-O cells is “only a moderate effect on 786-O cell growth and was a poor apoptosis inducer”; with A375 cells, “almost completely insensitive”.
